# Hits are enriched below; roughly 2.8% of the tested compounds scored in any of these assays.
# E-sel inducer = E-selectin induction in HUVECs, primary screen, imaging, HUVEC, immunofluorescence imaging, single point; normalized: neutral wells 0, TNF-alpha wells 100; activation, % at 7.58 µM; 0.37% of 260,000 active; AID 686992, 2013;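 active = mean E-selectin-positive cell signal at least 10% of the positive control, reached in at least 60% of replicates, without over 20% cell loss; inconclusive = no rule given, readout overlaps actives, possibly toxicity-flagged; inactive = the rest, including those meeting only one limit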
#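 Assay system: HUVEC primary endothelial cells. Input: 3,000 HUVEC seeded per well. Doses: one compound dose added by pin transfer. Read-out basis: % PE-positive cells. Benchmarks: TNF-alpha high, DMSO low. Detection: immunofluorescence imaging. Buffer or medium: EGM-2, gelatin.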
# Statin myotox sup = suppressors of statin myotoxicity in C2C12 myotubes, primary screen, cell-based, single point, plate reader; C2C12 myotubes + simvastatin, ATP luminescence, 48 h; scaled: DMSO 0, geranylgeraniol control 100; rescue of ATP level, % at 7.49 µM; 0.78% of 330,000 active;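 active = mean ATP rescue above about 67%, or every replicate alone reaching that limit, limit read from the data, passing the limit was not always enough; inconclusive = no clear call, values can overlap the other calls; inactive = mean under the limit and some replicate under it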;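 also: myotubes were challenged with 10 µM simvastatin during compound exposure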
# esBAF inh = Bmi1 luciferase reporter increase in mESCs, primary screen, esBAF inhibitor project, mouse ES cells, Bmi1 luciferase knock-in, single point; 24 h; 100% = twice the neutral-well signal; reporter increase, % at 12.5 µM; 2% of 350,000 active; AID 602393, 2012; in the data active = activation above about 40%; inconclusive = no clear call, values can overlap the other calls;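 also: a rise in the Bmi1 reporter signal indicates esBAF inhibition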
# PGC1a acetyl inh = inhibitors of PGC1a acetylation signal, primary screen, cell-based, U2OS, AlphaScreen, inhibitor mode; AID 651687, 2012; AlphaScreen anti-acetyl-lysine; with virally co-expressed GCN5 acetyltransferase; inhibition, % at 15.6 µM; 0.17% of 350,000 active;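 active = every replicate shows inhibition of at least 40%; inconclusive = mean inhibition at least 40% but some replicate below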
# PglD DTNB = C. jejuni PglD acetyltransferase inhibitors, primary screen, biochemical, DTNB colorimetric, single point. UDP-N-acetylbacillosamine N-acetyltransferase PglD (Campylobacter jejuni). purified PglD enzyme, DTNB colorimetric CoA detection. inhibition, % at 12.5 µM. 0.098% of 360,000 active; in the data active = inhibition above about 16%, passing the limit was not always enough; inconclusive = no clear call, values can overlap the other calls
# UUG fidelity = alters start codon recognition fidelity in yeast. S. cerevisiae UUG-firefly luciferase reporter, luminescence/redox ratio. 350,000 tested, 0.13% active. activity score, % at 18.7 µM. AID 602363;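 active means replicate mean at a twofold rise or more, about +100% in these data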;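 further: firefly luciferase made from a UUG start codon reports start codon fidelity; reporter light over untreated wells divided by growth signal over untreated wells; some hits fall short of that in this replicate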
# Hits are given with their value; – = inactive; ? = inconclusive; · = not tested or not shown.
SMILES,E-sel inducer,Statin myotox sup,esBAF inh,PGC1a acetyl inh,PglD DTNB,UUG fidelity
CC(=O)Nc1ccc2c(c1)nc1n2CCOC1,·,–,–,–,–,–
Cc1ccc(S(=O)(=O)Nc2cccc(-c3ccc(N4CCCCCC4)nn3)c2)c(C)c1,·,–,70.3,–,–,–
O=[N+]([O-])c1ccccc1S(=O)(=O)Nc1cccc(-c2ccc(N3CCCC3)nn2)c1,–,–,–,·,–,–
CO[C@@H](CN(C)C(=O)c1cnccn1)[C@H](C)CN([C@H](C)CO)S(=O)(=O)c1ccc(F)cc1,–,–,–,–,–,·
O=C(N[C@H]1CC[C@H](CCNS(=O)(=O)c2ccc(Cl)cc2)O[C@H]1CO)c1cccc(F)c1,–,–,–,–,–,–
O=C(Nc1nc2c(s1)CCCC2)c1ccc(N2C(=O)CCC2=O)cc1,–,–,43.6,·,–,–
CC1CCc2nc(NC(=O)c3ccc(N4C(=O)CCC4=O)cc3)sc2C1 (stereo not drawn),–,–,–,–,–,–
COc1ccccc1CNC(=O)C[C@@H]1CC[C@@H]2[C@H](COC[C@@H](O)CN2Cc2ccccc2)O1,–,–,–,–,–,·
COC(=O)C1=C2CC[C@H](CO)NC(=O)N[C@H](Cc3ccccc3)C(=O)NCc3cn(nn3)C[C@H](Cc3ccccc3)NC(=O)c3oc(c(C(=O)OC)c3C(=O)OC)CC[C@H](CO)NC(=O)N[C@H](Cc3ccccc3)C(=O)NCc3cn(nn3)C[C@H](Cc3ccccc3)NC(=O)C(=C1C(=O)OC)O2,·,·,·,–,–,–
CN1CCN(C(=O)[C@H]2[C@H](CO)[C@H]3Cn4c(ccc(-c5cncnc5)c4=O)[C@H]3N2CC2CC2)CC1,–,–,–,·,–,·
O=C(O)c1ccc(-n2ncc3c2/C(=C/c2cccc([N+](=O)[O-])c2)CC3)cc1,–,·,·,–,·,·
O=C(O)c1ccc(-n2ncc3c2/C(=C\c2cccc([N+](=O)[O-])c2)CC3)cc1,–,–,91.6,–,–,–
CC(C)c1ccc(/C=N/NC(=O)C2CCCC2)cc1,–,·,·,?,–,–
CC(C)(C)c1ccc(/C=N/NC(=O)C2CCCC2)cc1,–,–,55.5,–,–,–
CC1=CCC2C(=O)N(c3cccc(C(=O)Nc4ccc(Cl)cc4)c3)C(=O)C2C1 (stereo not drawn),–,–,–,–,–,–
CC1=CCC2C(=O)N(c3cccc(C(=O)NCc4ccccc4)c3)C(=O)C2C1 (stereo not drawn),–,–,–,63.2,–,–
COC(=O)C[C@H]1CC[C@H]2[C@@H](COc3ccc(NC(=O)c4ccccc4OC)cc3C(=O)N2C)O1,–,·,·,–,·,·
CS(=O)(=O)N1[C@@H]2Cn3c(ccc(-c4ccccc4)c3=O)[C@H]1[C@@H](C(=O)NCC1CC1)[C@@H]2CO,–,–,–,·,–,·
CO[C@H]1CN(C)C(=O)c2cc(NC(=O)Nc3cc(F)ccc3F)ccc2OC[C@@H](C)N(C(=O)c2cnccn2)C[C@@H]1C,–,–,–,–,–,–
O=C(CN1C(=O)CCS(=O)(=O)c2ccccc21)NCc1ccccc1,·,72.2,–,–,–,–
CC(C)NC(=O)N(C)C[C@H]1Oc2c(NC(=O)Nc3ccc4c(c3)OCO4)cccc2C(=O)N([C@H](C)CO)C[C@H]1C,–,–,–,–,–,–
O=C(/C=C/c1cn(CC(O)CN2CCCCC2)c2ccccc12)c1ccccc1 (stereo not drawn),·,·,·,–,·,·
CN1CCN(Cn2cc(/C=C/C(=O)c3ccccc3)c3ccccc32)CC1,·,–,62.0,–,–,–
Cc1ccccc1-c1nnc(-c2ccccc2C)o1,·,·,·,–,–,–
CSc1ccccc1-c1nnc(-c2ccccc2)o1,·,–,42.7,–,–,–
SMILES,E-sel inducer,Statin myotox sup,esBAF inh,PGC1a acetyl inh,PglD DTNB,UUG fidelity
Cc1ccccc1-c1nnc(-c2ccc(Br)cc2)o1,·,–,69.1,–,·,·
O=C(Cn1cnc2c(cnn2-c2ccc(Cl)cc2)c1=O)NCC1CCCO1 (stereo not drawn),·,84.7,–,–,–,–
Cc1ccc(-n2ncc3c(=O)n(CC(=O)NCC4CCCO4)cnc32)cc1 (stereo not drawn),·,–,–,–,–,–
COC(=O)c1c(-c2ccc(OC)cc2)sc2ccc(-c3ccc4c(c3)OCO4)cc12,–,–,–,·,–,–
COC(=O)c1c(-c2ccc(OC)cc2)sc2ccc(OC)cc12,–,–,45.9,–,–,–
N#Cc1ccc(-c2csc(NC3=NCCCCC3)n2)cc1,44.2,·,·,·,·,·
c1ccc(-c2csc(NC3=NCCCCC3)n2)cc1,–,·,·,–,·,–
FC(F)Oc1ccc(-c2csc(NNC3=NCCCCC3)n2)cc1,–,–,48.8,–,–,–
CCCNC(=O)N1[C@H](CO)[C@H](c2ccccc2-c2cccc(C)c2)[C@@H]1C#N,–,·,·,–,·,·
CN1C(=O)[C@@H]2[C@@H](CC(COc3ccccc3)=C3[C@@H](c4ccccc4)OB(O)C[C@@H]32)C1=O,·,·,·,–,–,–
CCOc1ccc2c(=O)c(Oc3ccccc3OCC)coc2c1,·,–,64.3,–,–,–
c1ccc2c(c1)oc1c(Nc3ccc4c(c3)OCO4)ncnc12,·,·,43.7,–,–,–
COc1ncnc2c1oc1ccccc12,·,–,60.0,–,–,–
c1ccc(Nc2ncnc3c2oc2ccccc23)cc1,·,–,87.7,–,–,–
Cc1nc(Nc2ccc3c(c2)OCO3)c2oc3ccccc3c2n1,·,–,–,–,–,–
CC(C)Sc1ncnc2c1oc1ccccc12,·,–,–,–,–,–
C[C@H](CO)N1C[C@H](C)[C@H](CN(C)C(=O)CCCN(C)C)OCc2cn(nn2)CCCC1=O,–,–,–,–,–,–
C[C@H](CO)N1C[C@H](C)[C@H](CN(C)Cc2cccc(C(F)(F)F)c2)Oc2ncccc2C1=O,–,–,–,–,·,·
CCCC(=O)N1CCCC(C(=O)c2cccc(OC(C)C)c2)C1 (stereo not drawn),·,–,53.9,·,–,–
CCC(=O)N(C)C[C@@H]1Oc2cc(-c3ccncc3)ccc2S(=O)(=O)N([C@@H](C)CO)C[C@@H]1C,–,–,–,–,–,–
CCCCC(=O)Nc1ccc(NC(=O)c2cc(OC)c(OC)c(OC)c2)cn1,·,82.4,–,–,–,–
CCCCc1c(C)nc2ccccc2c1SCCC(=O)O,·,–,–,–,–,–
CCCCc1c(C)nc2ccc(C)cc2c1SCCC(=O)O,29.2,–,–,–,·,·
CCNC(=O)[C@H]1[C@H](CO)[C@H]2Cn3c(cccc3=O)[C@@H]1N2C(=O)c1ccc(F)cc1,–,·,·,–,·,·

# Bioassay records as filed in PubChem.
